AlphaSeq binding of Ab-14 light chain variants to a spike HR2 peptide

Values reported by Li et al. 2023, doi:10.1038/s41467-023-39022-2 (FLAb copy).

The target is the same throughout: PDVDLGDISGINAS, from the HR2 region of SARS-CoV-2 spike.

Ab-14 is the parent antibody, in scFv form: VH, then a 15-residue (Gly4Ser)3 linker, then VL. The heavy chain is unchanged in all variants.
VH: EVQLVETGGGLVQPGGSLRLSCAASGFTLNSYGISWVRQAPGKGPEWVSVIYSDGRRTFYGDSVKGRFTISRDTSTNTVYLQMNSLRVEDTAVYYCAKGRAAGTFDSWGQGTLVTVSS
VL: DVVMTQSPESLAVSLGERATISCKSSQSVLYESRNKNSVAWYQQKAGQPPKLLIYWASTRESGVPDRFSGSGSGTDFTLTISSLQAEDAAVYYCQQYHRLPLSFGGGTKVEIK

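These sequences belong to a second round, designed from the earlier measurements on random variants of the parent. Their group label is 14L_En_HC (En: ensemble of fine-tuned language models; HC: hill climbing; a sequence that several methods proposed may carry one label only). Affinity was read by AlphaSeq, a pooled yeast mating assay with surface-displayed partners. After mating in shaken culture at 30 °C for 16 h, diploids were selected and their barcode pairs sequenced. Read counts were normalised to the haploid input and turned into Kd by a linear fit to BCL2-family pairs of known affinity, for each replicate. There are six technical replicates.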

Variants are written as CDR1, CDR2 and CDR3 of the light chain (limits as in the source). Parent: KSSQSVLYESRNKNSVA, WASTRES, QQYHRLPLS.
Values are log10 of the apparent Kd in nM; lower means stronger binding.
Where no diploid with the target was found in that replicate, the entry reads "nd": below detection, most likely a poor binder, though not proof of it.
Three control strains display no target. For all light chain designs, 4% of the pairings with them gave a signal, with a median of 2.64 and one signal in twenty below 1.59, so weak values seen in few replicates may be background. Also given: how often the same scFv was detected with the empty control strains, with their mean in brackets.
Values of this round are not directly comparable with the first-round values of the same sequences.
The authors' rule: three or more of the six replicates give a measured affinity, fewer mean a poor binder.
The parent sequence was in this pool as ten entries: three were never detected, three once, and four in most replicates, with averages from 0.34 to 2.37.

CDR-L1	CDR-L2	CDR-L3	log10 Kd (nM) by replicate	control signals
KLPLATMQESVSKNNVA	ELSTRGS	QQYHRLPLA	0.81 / 1.76 / 1.10 / 0.81 / 0.74 / 0.76	0 of 18
HISQMVMYGSCNKNNVA	QVSLRGE	QQYHRLPLS	1.33 / 0.95 / 0.88 / 1.34 / 2.21 / 1.61	0 of 18
KISHMVNFESTHINAVA	QMSTREE	QQYFRLPLS	0.60 / 0.37 / 0.64 / 0.40 / 0.03 / 0.80	0 of 18
NISESMYFQSVNKNNIA	EMSTRER	QHYHRLPLS	0.38 / 0.35 / 0.40 / 0.31 / 0.13 / 0.21	0 of 18
KIRMSTGYESRNKDSIA	DNSTRGR	QQYHRLPLS	1.57 / 1.01 / 1.22 / 1.19 / 1.27 / 1.72	0 of 18
KISQMYRYEQQNSSAIA	EVSTRLN	QSYHRLPLS	nd / 2.32 / 1.98 / 2.52 / 1.66 / 1.92	2 of 18 (3.07)
SLAEYAHMESRNKNSVA	DNSTRES	QHYDRLPLS	1.52 / 1.67 / 1.25 / 1.93 / 2.20 / 1.58	2 of 18 (2.66)
TISDLMHMESRNVNNVA	DLVKRES	QQYHRLPLS	-0.57 / -0.68 / -0.83 / -1.07 / -0.81 / -0.55	1 of 18 (2.63)
IIYGSMLMESRNKNSVA	NAETREY	QHYDRLPLS	1.74 / 1.10 / 1.69 / 1.62 / 1.79 / 2.17	0 of 18
TISQMSFIESKNRNNVA	EMTTREN	QDYDRLPLS	0.29 / 0.18 / -0.69 / 0.25 / 0.03 / 1.46	0 of 18
HISDLIMVASRNKNSVA	DENTRPD	QQYHRLPLS	0.05 / -0.14 / -0.27 / -0.34 / -0.24 / -0.16	2 of 18 (3.12)
KLRSLTHIESFNKNNVA	EMTTRES	QSYDRLPLS	1.52 / 1.38 / 1.38 / 1.98 / 1.58 / 1.66	3 of 18 (2.90)
LISGVTDYGSRNYNSVA	QTSTRES	QQYDRLPLE	1.28 / 1.38 / 1.32 / 1.22 / 1.78 / 1.28	1 of 18 (2.32)
SITQLVAYGSRNKNSVA	QMSTRED	QQYDRLPLS	0.64 / 0.74 / 0.51 / nd / 0.02 / 0.85	0 of 18
TVSQVHEMLSHNKDSVA	DMNTRES	QQYDRLPLS	1.07 / 1.67 / 1.72 / 0.89 / 0.99 / 1.86	0 of 18
HISQSVGMTSFNKNSVA	ENNTREN	QQYDRLPLS	nd / nd / 1.96 / nd / nd / nd	4 of 18 (2.30)
KLRMMTLTEGYFKNSVA	QAETREN	QSYHRLPLS	1.20 / 0.95 / 1.12 / 1.01 / 0.90 / 1.05	1 of 18 (2.37)
TLADVTRMESNKKSSIA	DMSNRAD	QQYHRLPIS	1.26 / 1.57 / 1.29 / 1.39 / 1.18 / 1.04	1 of 18 (2.39)
TIGQMFNGESRHRNSVA	QASTRES	QSYDRLPLS	1.36 / 0.52 / 0.81 / 0.08 / 1.13 / 0.45	1 of 18 (2.01)
KLSQVTHSEHKNKNSIA	EMVTREK	QQYDRLPLS	1.47 / 0.62 / 1.17 / 0.76 / 0.47 / 1.06	2 of 18 (2.14)
TLGDVTRMEANKKNSIA	DMSNRAD	QQYHRLPLS	-0.27 / -0.32 / -0.42 / -0.38 / -0.26 / -0.12	0 of 18
KLTEMFQHTSKNKSNIA	ERSTREE	QQYHHLPLS	0.72 / 1.07 / 0.95 / 1.27 / 1.19 / 1.06	1 of 18 (2.31)
TISQMMLYLSNLKNSVA	QAETRES	QQYHRLPIS	1.68 / 2.31 / 2.88 / 1.89 / 2.49 / nd	0 of 18
SLMQVPGYESNNKNSIA	DLRTRES	QQYHRLPLS	1.33 / 1.05 / 1.17 / 1.32 / 1.19 / 1.41	2 of 18 (3.30)
ILSQSVLMGMHTHNSVA	QATMRFN	QQYHRLPFM	1.79 / 1.13 / 1.44 / 0.99 / 1.31 / 1.33	1 of 18 (1.12)
KLSQMVGGESRNKSSLA	DNSTRES	QQYHRLPLS	2.81 / 2.01 / 1.91 / 3.02 / 1.69 / 1.66	0 of 18
KLPMSTMQESVSKNSVA	ELSTRGS	QQYHRLPLS	1.16 / 0.30 / 0.47 / 0.02 / 0.49 / 0.10	0 of 18
KISQMSYYESINKNSVA	QKSTREE	QDYHRLPLS	1.75 / 0.75 / 0.53 / 0.69 / 0.64 / 0.50	0 of 18
KISYMGEHFSTNHSAIA	QASTREV	QQYHRLPIS	0.99 / 1.17 / 1.04 / 0.83 / 0.91 / 1.01	0 of 18
KLGQSVAMTTRNKNNVA	DLNERER	QQYHRLPLS	-0.28 / -0.40 / -0.30 / -0.59 / -0.44 / -0.38	3 of 18 (3.24)
RLSDLVKMESRNTNSVA	DNSTRGS	QQYDRLPLS	1.77 / 1.72 / 1.95 / 2.10 / 1.93 / 1.94	2 of 18 (3.44)
KIYQATAMTSSMRNNVA	DLNERER	QQYFRLPLS	0.47 / 0.19 / -0.12 / -0.14 / -0.05 / 0.24	0 of 18
KIGHGLTTEMRNRNSVA	QTETRVE	QHYHRLPLS	1.88 / 1.51 / 1.35 / 1.31 / 1.41 / 2.67	1 of 18 (3.25)
HLSQSQDLESVHKNSIA	DLMTRES	QQYHRLPLS	0.81 / 0.39 / 0.21 / 0.04 / 0.41 / 0.39	1 of 18 (2.54)
KLLQTVFNGRRNRNNVA	HMTMRED	QQYFRLPLS	nd / nd / 2.36 / nd / 3.05 / nd	1 of 18 (2.56)
KLGQSVAMTSRNKNNVA	DLNERER	QQYDRLPLS	nd / 2.19 / 2.45 / 1.49 / 1.84 / 2.03	0 of 18
TIGQSVHETSKNKNSVA	HASTRED	QQYDRLPLS	0.54 / 0.44 / 0.35 / 0.36 / 0.43 / 0.43	0 of 18
KLRMMTLTGGYFKNSVA	QASTREN	QSYHRLPLS	nd / 1.31 / 1.20 / 0.69 / 1.80 / 1.36	1 of 18 (1.84)
KLRQLQHIESFNKNNVA	EMTTRES	QSYDRLPLS	0.70 / 1.08 / 1.00 / 0.90 / 0.40 / 1.37	0 of 18
KLSIFSQVESINKSNVA	EMVTRES	QQYDRLPLS	2.91 / 2.91 / 3.21 / 3.20 / 2.67 / 3.90	1 of 18 (3.22)
KLGQMTAIESRNNNSVA	QMDTRES	QQYHRLPLS	2.14 / 1.53 / 1.71 / 1.67 / 1.67 / 1.44	1 of 18 (2.32)
TISQSAQMESHNKNSVA	DLNVRGN	QQYDRLPLS	0.56 / 1.00 / 0.77 / 0.39 / 0.50 / 1.24	1 of 18 (1.86)

Excerpt, the final 6 entries:

CDR-L1,CDR-L2,CDR-L3,log10 Kd (nM) by replicate,control signals
TIGQSVHETSKNKNSVA,HASTRED,QQYDRLPLS,0.54 / 0.44 / 0.35 / 0.36 / 0.43 / 0.43,0 of 18
KLRMMTLTGGYFKNSVA,QASTREN,QSYHRLPLS,nd / 1.31 / 1.20 / 0.69 / 1.80 / 1.36,1 of 18 (1.84)
KLRQLQHIESFNKNNVA,EMTTRES,QSYDRLPLS,0.70 / 1.08 / 1.00 / 0.90 / 0.40 / 1.37,0 of 18
KLSIFSQVESINKSNVA,EMVTRES,QQYDRLPLS,2.91 / 2.91 / 3.21 / 3.20 / 2.67 / 3.90,1 of 18 (3.22)
KLGQMTAIESRNNNSVA,QMDTRES,QQYHRLPLS,2.14 / 1.53 / 1.71 / 1.67 / 1.67 / 1.44,1 of 18 (2.32)
TISQSAQMESHNKNSVA,DLNVRGN,QQYDRLPLS,0.56 / 1.00 / 0.77 / 0.39 / 0.50 / 1.24,1 of 18 (1.86)